Read-outs that look alike come from different tables or passages of the source.
How the values were obtained:
ORL1 receptor = ORL1 receptor (Homo sapiens, UniProt P41146); conditions: for % inhibition (ORL1) [1 μM] / ORL1 % Inhibition @ 1 μM: test concentration 1 μM
human μ opiate receptor = human μ opiate receptor (Homo sapiens, UniProt P35372); experiment: μ opiate receptor binding assay with [3H]-naloxone, membrane preparation of CHO-K1 cells (WGA-SPA beads); conditions: for % inhibition (μ) [1 μM] / MOP % Inhibition @1 μM: test concentration 1 μM
[1] = read-out: Ki (ORL1) mean [μm], mean
[2] = read-out: Ki (μ) mean [μm], mean

The chains behind the UniProt entries cited, without tags or fusion partners. Where a name states a change or a piece, a line headed by the entry shows the natural chain unless it says otherwise.
UniProt P41146: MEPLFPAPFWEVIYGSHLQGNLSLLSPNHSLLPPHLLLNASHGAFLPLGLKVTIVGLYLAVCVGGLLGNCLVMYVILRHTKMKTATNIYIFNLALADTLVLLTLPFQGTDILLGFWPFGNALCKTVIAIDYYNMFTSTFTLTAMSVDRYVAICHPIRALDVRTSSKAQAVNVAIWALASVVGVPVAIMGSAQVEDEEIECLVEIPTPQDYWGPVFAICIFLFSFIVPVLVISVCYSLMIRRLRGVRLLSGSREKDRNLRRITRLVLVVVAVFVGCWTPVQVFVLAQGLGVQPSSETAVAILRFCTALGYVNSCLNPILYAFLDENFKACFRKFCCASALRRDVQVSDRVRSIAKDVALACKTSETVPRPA
UniProt P35372, whole entry, looked up: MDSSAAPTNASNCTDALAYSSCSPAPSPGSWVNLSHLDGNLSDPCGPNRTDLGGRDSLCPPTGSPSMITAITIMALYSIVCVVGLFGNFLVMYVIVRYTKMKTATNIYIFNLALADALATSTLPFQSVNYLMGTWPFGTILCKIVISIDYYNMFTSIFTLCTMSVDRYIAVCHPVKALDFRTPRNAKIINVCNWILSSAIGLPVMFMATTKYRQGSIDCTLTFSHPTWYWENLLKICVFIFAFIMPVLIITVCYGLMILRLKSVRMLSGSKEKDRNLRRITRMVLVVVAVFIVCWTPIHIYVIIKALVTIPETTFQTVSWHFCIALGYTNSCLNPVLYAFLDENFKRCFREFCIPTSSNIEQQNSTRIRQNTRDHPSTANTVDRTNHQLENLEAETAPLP

Molecule | Ki (ORL1 receptor; [1]) | % inhibition (ORL1) [1 μM] (ORL1 receptor) | Ki (human μ opiate receptor; [2]) | % inhibition (μ) [1 μM] (human μ opiate receptor) | Ki (ORL1 receptor; read-out: ORL1 Ki) | ORL1 % Inhibition @ 1 μM (ORL1 receptor) | Ki (human μ opiate receptor; read-out: MOP Ki) | MOP % Inhibition @1 μM (human μ opiate receptor)
CCCCC1(N(C)C)CCC2(CCN(C(=O)Cc3ccc(C)s3)C2)CC1 (centres unmarked) | 170 nM | 46.5% | 13 nM | 97% | – | – | – | –
CN(C)C1(Cc2ccccc2)CCC2(CCN(Cc3ccncc3)C2)CC1 (centres unmarked) | 310 nM | 32% | 52 nM | 67.5% | – | – | – | –
Trans-8-Dimethylamino-2,8-diphenyl-2-azaspiro[4.5]decan-3-one | – | – | – | – | 250 nM | 34% | 2280 nM | 40%
COc1ncc(N2CC3(CCC(c4ccccc4)(N(C)C)CC3)CC2=O)cn1 (centres unmarked) | – | – | – | – | 102 nM | – | 140 nM | –
CN(C)[C@]1(c2ccccc2)CC[C@]2(CC1)CC(=O)N(CCCNC(=O)c1ccncc1)C2 | – | – | – | – | 655 nM | 37% | 185 nM | 80%
CN(C)[C@]1(c2cnccn2)CC[C@]2(CC1)CC(=O)N(CCC(N)=O)C2 | – | – | – | – | – | 10% | 1050 nM | 46%
CN(C)C1(c2ccccc2)CCC2(CC1)CC(=O)N(CCC1(C(N)=O)CCS(=O)(=O)CC1)C2 (centres unmarked) | – | – | – | – | 180 nM | 43% | 30 nM | 93%
CN(C)[C@]1(c2ccccc2)CC[C@]2(CC1)CC(=O)N(CC(C)(C)C(=O)NCCO)C2 | – | – | – | – | 150 nM | 55% | 200 nM | 78%
CN(C)[C@]1(c2ccccc2)CC[C@]2(CC1)CC(=O)N(CC(C)(C)C(=O)NCCc1cncnc1)C2 | – | – | – | – | 770 nM | 28% | – | 89%
COC(=O)CN1CC2(CCC(c3ccccn3)(N(C)C)CC2)CC1=O (centres unmarked) | – | – | – | – | 345 nM | 37% | 585 nM | 58%
Cis-2-(8-Methylamino-3-oxo-8-pyridin-2-yl-2-azaspiro[4.5]decan-2-yl)-acetamide | – | – | – | – | – | 12% | – | 2%
CN(C)[C@]1(c2ccccc2)CC[C@]2(CC1)CC(=O)N(CC(=O)Nc1ccccn1)C2 | – | – | – | – | 61 nM | 49% | 5.4 nM | 99%
COC(=O)CN1C[C@]2(CC[C@@](c3ccccc3)(N(C)C)CC2)CC1=O | – | – | – | – | 24.5 nM | 80% | 29.5 nM | 96%
COCCNC(=O)C(C)(C)CN1CC2(CCC(c3ccccc3)(N(C)C)CC2)CC1=O (centres unmarked) | – | – | – | – | 79.5 nM | 73% | 87.5 nM | 68%
COCCNC(=O)CCN1C[C@]2(CC[C@@](c3ccccc3)(N(C)C)CC2)CC1=O | – | – | – | – | 220 nM | 56% | 36.5 nM | 90%
COc1ccc(N2CC3(CCC(c4ccccc4)(N(C)C)CC3)CC2=O)cn1 (centres unmarked) | – | – | – | – | 75 nM | – | 150 nM | –
CN(C)C1(c2ccccc2)CCC2(CC1)CC(=O)N(CCC(C)(C)C(=O)NCC(C)(C)O)C2 (centres unmarked) | – | – | – | – | 47 nM | 58% | 78.5 nM | 90%
CN1CCC(CCN2CC3(CCC(c4cccs4)(N(C)C)CC3)CC2=O)CC1 (centres unmarked) | 160 nM | 62.5% | 36 nM | 94.5% | – | – | – | –
CN(C)[C@]1(c2ccccc2)CC[C@]2(CC1)CC(=O)N(Cc1ccccc1C(=O)O)C2 | – | – | – | – | 6.7 nM | 93% | 4 nM | 100%
CN1CCC(CN2CC3(CCC(c4cccs4)(N(C)C)CC3)CC2=O)CC1 (centres unmarked) | 96.5 nM | 63% | 19.5 nM | 95.5% | – | – | – | –
CN(C)[C@]1(c2cnccn2)CC[C@]2(CC1)CC(=O)N(CCCC(N)=O)C2 | – | – | – | – | – | 4% | – | 39%
cis-4-[2-(8-Dimethylamino-3-oxo-8-phenyl-2-azaspiro[4.5]decan-2-yl)-ethyl]-1,1-dioxo-thiane-4-carboxylic acid 2,2,2-trifluoro acetate | – | – | – | – | – | 8% | 125 nM | 88%
CC(=O)N1CC(CN2CCC3(CCC(c4cccs4)(N(C)C)CC3)C2)C1 (centres unmarked) | 105 nM | 52% | 15.5 nM | 93.5% | – | – | – | –
CN(C)[C@]1(c2ccccc2)CC[C@]2(CC1)CC(=O)N(CC(=O)NCCC(C)(C)O)C2 | – | – | – | – | 150 nM | 52% | 205 nM | 83%
CN(C)C1(c2cnccn2)CCC2(CC1)CC(=O)N(CC(C)(C)C(N)=O)C2 (centres unmarked) | – | – | – | – | 750 nM | 10% | 975 nM | 59%

Molecule | Ki (ORL1 receptor; [1]) | % inhibition (ORL1) [1 μM] (ORL1 receptor) | Ki (human μ opiate receptor; [2]) | % inhibition (μ) [1 μM] (human μ opiate receptor) | Ki (ORL1 receptor; read-out: ORL1 Ki) | ORL1 % Inhibition @ 1 μM (ORL1 receptor) | Ki (human μ opiate receptor; read-out: MOP Ki) | MOP % Inhibition @1 μM (human μ opiate receptor)
CN(C)[C@]1(c2ccccc2)CC[C@]2(CC1)CC(=O)N(CCCNC(=O)c1ccccn1)C2 | – | – | – | – | 92.5 nM | 67% | 24 nM | 98%
CN(C)C1(CC2CCCCC2)CCC2(CCN(Cc3ccccc3)C2)CC1 (centres unmarked) | 99 nM | 69.5% | 1.9 nM | 101.5% | – | – | – | –
CN(C)[C@]1(c2ccccc2)CC[C@]2(CC1)CC(=O)N(CC(C)(C)C(=O)N1CCN(S(C)(=O)=O)CC1)C2 | – | – | – | – | 190 nM | 53% | 115 nM | 83%
CN(C)[C@]1(c2ccccc2)CC[C@@]2(CC1)CC(=O)N(Cc1ccccc1C(=O)O)C2 | – | – | – | – | – | 17% | 2320 nM | 27%
CN(C)[C@]1(c2ccccc2)CC[C@]2(CC1)CC(=O)N(CCCC(=O)N1CCN(S(C)(=O)=O)CC1)C2 | – | – | – | – | 275 nM | 37% | 240 nM | 72%
COc1ccc(CCC(=O)N2CCC3(CCC(c4ccccc4)(N(C)C)CC3)C2)cc1 (centres unmarked) | – | – | – | – | 283 nM | 53% | 128 nM | 90%
CC(=O)N1CC(CN2CCC3(CCC(c4ccccc4)(N(C)C)CC3)C2)C1 (single isomer, unassigned) | 55 nM | 71.5% | 26.5 nM | 93.5% | – | – | – | –
CN(C)C1(c2ccccc2)CCC2(CCN(C(=O)CCCc3ccccn3)C2)CC1 (centres unmarked) | – | – | – | – | 52.3 nM | 57% | 4.9 nM | 101%
CN(C)[C@]1(c2ccccc2)CC[C@]2(CC1)CC(=O)N(CC(=O)NCc1cncnc1)C2 | – | – | – | – | 240 nM | 45% | 86.5 nM | 91%
CN(C)[C@]1(c2ccccc2)CC[C@]2(CC1)CC(=O)N(CCC(C)(C)C(N)=O)C2 | – | – | – | – | 18 nM | 94% | 26 nM | 98%
CN(C)[C@]1(c2ccccc2)CC[C@]2(CC1)CC(=O)N(CC1(C(N)=O)CCC1)C2 | – | – | – | – | 14.5 nM | 91% | 14.5 nM | 94%
CN(C)[C@]1(c2ccccc2)CC[C@]2(CC1)CC(=O)N(CC(C)(C)C(=O)NCCS(C)(=O)=O)C2 | – | – | – | – | 300 nM | 31% | 315 nM | 72%
CN[C@]1(c2ccccn2)CC[C@@]2(CC1)CC(=O)N(CCC(C)(C)C(N)=O)C2 | – | – | – | – | 1500 nM | 20% | 1160 nM | 47%
CN(C)[C@]1(c2ccccc2)CC[C@]2(CC1)CC(=O)N(CCC1(C(N)=O)CCOCC1)C2 | – | – | – | – | 20.5 nM | 96% | 51 nM | 97%
cis-4-(8-Dimethylamino-3-oxo-8-phenyl-2-azaspiro[4.5]decan-2-yl)-2,2-dimethyl-butyric acid hydrochloride | – | – | – | – | 270 nM | 62% | 485 nM | 69%
cis-3-(8-Dimethylamino-3-oxo-8-pyridin-2-yl-2-azaspiro[4.5]decan-2-yl)-2,2-dimethyl-propionic acid hydrochloride | – | – | – | – | – | 5% | 3700 nM | 26%
CN(C)[C@]1(c2ccccc2)CC[C@]2(CC1)CC(=O)N(CC(C)(C)C(=O)N1CCOC(CO)C1)C2 (some centres unmarked) | – | – | – | – | 220 nM | 56% | 113 nM | 87%
CN(C)[C@]1(c2ccccc2)CC[C@]2(CC1)CC(=O)N(CCCNC(=O)c1ccncn1)C2 | – | – | – | – | 223 nM | 45% | 89 nM | 87%
CN(C)[C@]1(c2ccccc2)CC[C@]2(CC1)CC(=O)N(CCCNS(=O)(=O)c1ccccn1)C2 | – | – | – | – | 96.5 nM | 67% | 26 nM | 99%
Cc1ccc(C2(N(C)C)CCC3(CCN(C(=O)c4ccccc4)C3)CC2)s1 (centres unmarked) | 77 nM | 70.5% | 26 nM | 92% | – | – | – | –
CN(C)[C@]1(c2ccccc2)CC[C@]2(CC1)CC(=O)N(CCC(=O)NCC#N)C2 | – | – | – | – | 235 nM | 55% | 67 nM | 86%
CN(C)[C@]1(c2ccccc2)CC[C@]2(CC1)CC(=O)N(c1ccccc1)C2 | – | – | – | – | 9.2 nM | 88% | 4.2 nM | 98%
CN(C)[C@]1(c2ccccc2)CC[C@]2(CC1)CC(=O)N(c1ccc(C#N)cc1)C2 | – | – | – | – | 465 nM | 32% | 175 nM | 85%
CNC(=O)C(C)(C)NC(=O)CN1C[C@]2(CC[C@@](c3ccccc3)(N(C)C)CC2)CC1=O | – | – | – | – | 780 nM | 32% | 210 nM | 77%
CN(C)[C@]1(c2ccccc2)CC[C@]2(CC1)CC(=O)N(CCC1(C(=O)OC(C)(C)C)CCOCC1)C2 | – | – | – | – | – | – | 2.9 nM | 101%

Source: patent publication US10214520B2, “Substituted azaspiro(4.5)decane derivatives” (priority 2014, dated 2019)
